{"source": "patent US11547681B2", "about": "“N-acylethanolamide derivatives and uses thereof” (ELIEM THERAPEUTICS, INC., priority 2016, dated 2023)", "key": {"[1]": {"assay": "Liver S9 stability, mouse", "details": "male, CD-1, mouse"}, "[2]": {"assay": "Liver S9 stability, rat", "details": "male, Sprague-Dawley, s9, Half-life (min), control compound"}}, "data": [{"smiles": "C[C@]12CC[C@H]3[C@@H](CCC4=CC(=O)CC[C@@]43C)[C@@H]1CC[C@@H]2O", "note": "[Testosterone, testosterone]", "values": [{"measurement": "half-life at 1 μM", "setting": "[1]", "result": 7.1, "unit": "min"}, {"measurement": "Half-life", "setting": "[2]", "result": 4.7, "unit": "min"}]}]}
